Data on one compound can be found in US12240857B2 (priority 2017, dated 2025).

Bounds are passed on as bounds.

This data set in a line: in vitro. Conditions: African green monkey.

Turning to `N[C@H]1CC[C@H](NC(=O)C23CC4CC(CO)(C2)CC(c2ccccc2)(C4)C3)CC1` (stereo partly drawn) [Example A116, trans-N-(4-aminocyclohexyl)-3-(hydroxymethyl)-5-phenyladamantane-1-carboxamide], the CC50 was over 100 µM.
